Assay results: FireProtDB (doi:10.1038/nsb0696-497)

B1: Alpha-1-antitrypsin, P01009 (parent)
chain: MPSSVSWGILLLAGLCCLVPVSLAEDPQGDAAQKTDTSHHDQDHPTFNKITPNLAEFAFSLYRQLAHQSNSTNIFFSPVSIATAFAMLSLGTKADTHDEILEGLNFNLTEIPEAQIHEGFQELLRTLNQPDSQLQLTTGNGLFLSEGLKLVDKFLEDVKKLYHSEAFTVNFGDTEEAKKQINDYVEKGTQGKIVDLVKELDRDTVFALVNYIFFKGKWERPFEVKDTEEEDFHVDQVTTVKVPMMKRLGMFNIQHCKKLSSWVLLMKYLGNATAIFFLPDEGKLQHLENELTHDIITKFLENEDRRSASLHLPKLSITGTYDLKSVLGQLGITKVFSNGADLSGVTEEAPLKLSKAVHKAVLTIDEKGTEAAGAMFLEAIPMSIPPEVKFNKPFVFLMIEQNTKSPLFMGKVVNPTQK

Variants of: B1
Conditions: Homo sapiens; pH 6.5; 25 °C; Urea; CD; Potassium phosphate 10 mM; NaCl 50 mM; reversible: Unknown; structure 1QLP; whole UniProt chain shown

Variant | ddG of mutation (higher = less stable) [kcal/mol]
MPSSVSWGILLLAGLCCLVPVSLAEDPQGDAAQKTDTSHHDQDHPTFNKITPNLAEFAFSLYRQLAHQSNSTNIFFSPVSIATAFAMLSLGTKADTHDEILEGLNFNLTEIPEAQIHEGFQELLRTLNQPDSQLQLTTGNGLFLSEGLKLVDKFLEDVKKLYHSEAFTVNFGDTEEAKKQINDYVEKGTQGKIVDLVKELDRDTVFALVNYIFFKGKWERPFEVKDTEEEDFHVDQVTTVKVPMMKRLGMFNIQHCKKLSSWVLLMKYLGNATAIFFLPDEGKLQHLENELTHDIITKFLENEDRRSASLHLPKLSITGTYDLKSVLGQLGITKVFSNGADLSGVTEEAPLKLSKAVHKAVLTIDEKGTEAAGAMFLEAIPMSIPPEVKFNKPFVFLMIEQNTKAPLFMGKVVNPTQK [S405A] | -1
MPSSVSWGILLLAGLCCLVPVSLAEDPQGDAAQKTDTSHHDQDHPTFNKITPNLAEFAFSLYRQLAHQSNSTNIFFSPVSIAAAFAMLSLGAKGDTHDEILEGLNFNLTEIPEAQIHEGFQELLRTLNQPDSQLQLTTGNGLFLSEGLKLVDKFLEDVKKLYHSEAFTVNFGDTEEAKKQINDYVEKGTQGKIVDLVKELDRDTVFALVNYIFFKGKWERPFEVKDTEEEDFHVDQVTTVKVPMMKRLGMFNIQHCKKLSSWVLLMKYLGNATAIFFLPDEGKLQHLENELTHDIITKFLENEDRRSASLHLPKLSITGTYDLKSVLGQLGITKVFSNGADLSGVTEEAPLKLSKAVHKAVLTIDEKGTEAAGAMFLEAIPMSIPPEVKFNKPFVFLMIEQNTKSPLFMGKVVNPTQK [T83A T92A A94G] | -3.4
MPSSVSWGILLLAGLCCLVPVSLAEDPQGDAAQKTDTSHHDQDHPTFNKITPNLAEFAFSLYRQLAHQSNSTNIFFSPVSIATAFAMLSLGTKADTHDEILEGLNFNLTEIPEAQIHEGFQELLRTLNQPDSQLQLTTGNGLFLSEGLKLVDKFLEDVKKLYHSEAFTVNFGDTEEAKKQINDYVEKGTQGKIVDLVKELDRDTVFALVNYIFFKGKWERPFEVKDTEEEDFHVDQVTTVKVPMMKRLGMFNIQHCKKLSSWVLLMKYLGNATAIFFLPDEGKLQHLENELTHDIITKFLENEDRRSASLHLPKLSITGTYDLKSVLGQLGITKVFSNGADLSGVTEEAPLKLSKAVHKAVLTIDEKGTEAAGAMFLEAIPMSIPPEVKFNKPFVFLMIEQNTKAPLFMGRVVNPTQK [S405A K411R] | -2.1
MPSSVSWGILLLAGLCCLVPVSLAEDPQGDAAQKTDTSHHDQDHPTFNKITPNLAEFAFSLYRQLAHQSNSTNIFFSPVSIATAFAMLSLGTKADTHDEILEGLNFNLTEIPEAQIHEGFQELLRTLNQPDSQLQLTTGNGLFLSEGLKLVDKFLEDVKKLYHSEAFTVNFGDTEEAKKQINDYVEKGTQGKIVDLVKELDRDTVFALVNYIFFKGKWERPFEVKDTEEEDFHVDQVTTVKVPMMKRLGMFNIQHCKKLSSWVLLMKYLGNATAIFFLPDEGKLQHLENELTHDIITKFLENEDRRSASLHLPKLSITGTYDLKSVLGQLGITKVFSNGADLSGVTEEAPLKLSKAVHKAVLTIDEKGTEAAGAMFLEAIPMSIPPEVKFNKPFVFLMIEQNTKSPLFMGRVVNPTQK [K411R] | -1
MPSSVSWGILLLAGLCCLVPVSLAEDPQGDAAQKTDTSHHDQDHPTFNKITPNLAEFAFSLYRQLAHQSNSTNIFFSPVSIATAFAMLSLGAKADTHDEILEGLNFNLTEIPEAQIHEGFQELLRTLNQPDSQLQLTTGNGLFLSEGLKLVDKFLEDVKKLYHSEAFTVNFGDTEEAKKQINDYVEKGTQGKIVDLVKELDRDTVFALVNYIFFKGKWERPFEVKDTEEEDFHVDQVTTVKVPMMKRLGMFNIQHCKKLSSWVLLMKYLGNATAIFFLPDEGKLQHLENELTHDIITKFLENEDRRSASLHLPKLSITGTYDLKSVLGQLGITKVFSNGADLSGVTEEAPLKLSKAVHKAVLTIDEKGTEAAGAMFLEAIPMSIPPEVKFNKPFVFLMIEQNTKSPLFMGKVVNPTQK [T92A] | -1
MPSSVSWGILLLAGLCCLVPVSLAEDPQGDAAQKTDTSHHDQDHPTFNKITPNLAEFAFSLYRQLAHQSNSTNIFFSPVSIAAAFAMLSLGTKADTHDEILEGLNFNLTEIPEAQIHEGFQELLRTLNQPDSQLQLTTGNGLFLSEGLKLVDKFLEDVKKLYHSEAFTVNFGDTEEAKKQINDYVEKGTQGKIVDLVKELDRDTVFALVNYIFFKGKWERPFEVKDTEEEDFHVDQVTTVKVPMMKRLGMFNIQHCKKLSSWVLLMKYLGNATAIFFLPDEGKLQHLENELTHDIITKFLENEDRRSASLHLPKLSITGTYDLKSVLGQLGITKVFSNGADLSGVTEEAPLKLSKAVHKAVLTIDEKGTEAAGAMFLEAIPMSIPPEVKFNKPFVFLMIEQNTKSPLFMGKVVNPTQK [T83A] | -1
MPSSVSWGILLLAGLCCLVPVSLAEDPQGDAAQKTDTSHHDQDHPTFNKITPNLAEFAFSLYRQLAHQSNSTNIFFSPVSIATAFAMLSLGTKADTHDEILEGLNFNLTEIPEAQIHEGFQELLRTLNQPDSQLQLTTGNGLFLSEGLKLVDKFLEDVKKLYHSEAFTVNFGDTEEAKKQINDYVEKGTQGKIVDLVKELDRDTVFALVNYIFFKGKWERPFEVKDTEEEDFHVDQVTTVKVPMMKRLGMFNIQHCKKLSSWVLLMKYLGNATAIFFLPDEGKLQHLENELTHDIITKFLENEDRRSASLHLPKLSITGTYDLKSVLGQLGITKVFSNGADLSGVTEEAPLKLSKAVHKAVLTIDEKGTEAAGAMFLEAIPMSIPPEVKFNKPFVFLIIEQNTKSPLFMGKVVNPTQK [M398I] | -2.3
MPSSVSWGILLLAGLCCLVPVSLAEDPQGDAAQKTDTSHHDQDHPTFNKITPNLAEFAFSLYRQLAHQSNSTNIFFSPVSIATAFAMLSLGTKGDTHDEILEGLNFNLTEIPEAQIHEGFQELLRTLNQPDSQLQLTTGNGLFLSEGLKLVDKFLEDVKKLYHSEAFTVNFGDTEEAKKQINDYVEKGTQGKIVDLVKELDRDTVFALVNYIFFKGKWERPFEVKDTEEEDFHVDQVTTVKVPMMKRLGMFNIQHCKKLSSWVLLMKYLGNATAIFFLPDEGKLQHLENELTHDIITKFLENEDRRSASLHLPKLSITGTYDLKSVLGQLGITKVFSNGADLSGVTEEAPLKLSKAVHKAVLTIDEKGTEAAGAMFLEAIPMSIPPEVKFNKPFVFLMIEQNTKSPLFMGKVVNPTQK [A94G] | -1.6
MPSSVSWGILLLAGLCCLVPVSLAEDPQGDAAQKTDTSHHDQDHPTFNKITPNLAEFAFSLYRQLAHQSNSTNILFSPVSIATAFAMLSLGTKADTHDEILEGLNFNLTEIPEAQIHEGFQELLRTLNQPDSQLQLTTGNGLFLSEGLKLVDKFLEDVKKLYHSEAFTVNFGDTEEAKKQINDYVEKGTQGKIVDLVKELDRDTVFALVNYIFFKGKWERPFEVKDTEEEDFHVDQVTTVKVPMMKRLGMFNIQHCKKLSSWVLLMKYLGNATAIFFLPDEGKLQHLENELTHDIITKFLENEDRRSASLHLPKLSITGTYDLKSVLGQLGITKVFSNGADLSGVTEEAPLKLSKAVHKAVLTIDEKGTEAAGAMFLEAIPMSIPPEVKFNKPFVFLIIEQNTKSPLFMGKVVNPTQK [F75L M398I] | -3.6
MPSSVSWGILLLAGLCCLVPVSLAEDPQGDAAQKTDTSHHDQDHPTFNKITPNLAEFAFSLYRQLAHQSNSTNILFSPVSIATAFAMLSLGTKADTHDEILEGLNFNLTEIPEAQIHEGFQELLRTLNQPDSQLQLTTGNGLFLSEGLKLVDKFLEDVKKLYHSEAFTVNFGDTEEAKKQINDYVEKGTQGKIVDLVKELDRDTVFALVNYIFFKGKWERPFEVKDTEEEDFHVDQVTTVKVPMMKRLGMFNIQHCKKLSSWVLLMKYLGNATAIFFLPDEGKLQHLENELTHDIITKFLENEDRRSASLHLPKLSITGTYDLKSVLGQLGITKVFSNGADLSGVTEEAPLKLSKAVHKAVLTIDEKGTEAAGAMFLEAIPMSIPPEVKFNKPFVFLMIEQNTKSPLFMGKVVNPTQK [F75L] | -2.1
